Ab-91 heavy chain CDR variants: yeast mating affinities

From the AlphaSeq antibody data of Engelhart et al. 2022 (doi:10.1038/s41597-022-01779-4), copy in the FLAb collection.

All variants were tested on one target, the spike HR2 peptide PDVDLGDISGINAS (SARS-CoV-2).

Parent scFv Ab-91: VL joined to VH by the linker GGGGSGGGGSGGGGS. Changes lie in the heavy chain CDRs alone.
VL: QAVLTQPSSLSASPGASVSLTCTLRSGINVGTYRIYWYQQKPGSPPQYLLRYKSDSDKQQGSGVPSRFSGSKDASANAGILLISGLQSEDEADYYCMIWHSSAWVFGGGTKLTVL
VH: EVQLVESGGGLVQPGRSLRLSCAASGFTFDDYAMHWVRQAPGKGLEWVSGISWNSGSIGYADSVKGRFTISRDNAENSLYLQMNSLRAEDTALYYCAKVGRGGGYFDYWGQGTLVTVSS

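The starting antibody came from a phage panning campaign against this peptide. In library AAYL51, one, two or three CDR residues were substituted; doubles and triples were drawn at random. Affinity was read by AlphaSeq, a pooled yeast mating assay with surface-displayed partners. Pairs that bind mate more often; barcode pairs of the diploids are counted by sequencing. Scores were corrected for input abundance and mapped to Kd with protein pairs of known affinity run in the same pool. Each pool was mated in three replicate cultures.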

Changes read parent residue, position, new residue, counted from the first residue of the VH shown.
This list gathers variants with a substitution at S57 (VH, numbered from residue 1).
Affinities are written as log10 Kd with Kd in nM; a lower number is a better binder.
A mean of the replicates is given; it leaves out those without a signal.
"not detected" marks a missing value. The strain was present, yet no cells mated with the target were sequenced in any replicate, which points to weak or no binding.
Nonspecific signal, from three strains lacking the peptide, appeared in 21% of pairings of library AAYL51, centred on 4.54 (5% of these signals below 3.26); values are not corrected for it.
Parent in this assay: reference entry 1.86, copy in this library 0.88.

changes	log10 Kd (nM), mean	seen in
F29N/S57R	4.41	1 of 3
W53Y/S57N/G100D	4.16	1 of 3
G50E/I51Q/S57I	5.18	2 of 3
D30F/S57D/D107V	1.30	3 of 3
S57H/K65G	1.96	3 of 3
D30Y/S57N/S63Q	2.14	3 of 3
G56V/S57I/R101H	not detected	0 of 3
A33L/S57C/A61Y	not detected	0 of 3
N54A/S57C/V64G	4.96	3 of 3
W53F/S57M/D62P	1.59	3 of 3
S57D/Y60R/F106L	not detected	0 of 3
A33S/S57M/K65N	not detected	0 of 3
S52V/S57Q/D62M	not detected	0 of 3
S55T/S57H/G104W	not detected	0 of 3
S57K/D62W/Y108C	4.15	2 of 3
G56M/S57I/S63F	3.38	1 of 3
S57W/I58M/D62M	3.78	1 of 3
N54E/S57K/V99K	not detected	0 of 3
D30P/S57V/V64P	5.50	2 of 3
S57C/G104M/F106Y	4.53	1 of 3
G56C/S57V/S63E	5.44	1 of 3
S57E/G100Q/G104S	5.45	1 of 3
F29C/S57G/Y108F	not detected	0 of 3
M34T/S55K/S57R	not detected	0 of 3
H35P/S57A/V99G	not detected	0 of 3
S57N/D62R/V64I	4.21	2 of 3
I51A/S57A/G59A	not detected	0 of 3
M34T/N54L/S57K	4.86	2 of 3
N54K/S57N/G100V	4.95	1 of 3
Y32K/S57I/V64T	3.91	1 of 3
W53T/S57L/G102P	5.01	2 of 3
S57Q/A61Y/V99D	5.47	1 of 3
S57M/I58T/G103C	3.87	2 of 3
G50M/S57P	not detected	0 of 3
F27Y/S57G/A61Y	not detected	0 of 3
S52G/S57H/R101D	4.17	2 of 3
S57Q/D62W/D107Y	not detected	0 of 3
D30Y/G50S/S57A	5.52	3 of 3
S57Y/G100T/G102Q	not detected	0 of 3
S52V/S57H/Y105T	not detected	0 of 3
D31L/S57I/D107I	3.50	1 of 3
Y32A/S52L/S57N	not detected	0 of 3
S52E/S57P/K65Y	5.62	1 of 3
D30Q/S57E/F106Q	1.67	3 of 3
S57Q/S63Y/G103L	5.27	1 of 3
N54P/S57G/S63L	4.55	3 of 3
S57P/D62F/G102H	3.81	1 of 3
T28R/N54W/S57K	4.88	1 of 3
Y32I/S57D/F106P	not detected	0 of 3
S57W/S63M/D107E	4.73	1 of 3
S57H/S63K/G100Y	4.14	3 of 3
S57N/F106E	not detected	0 of 3
D30F/S57I/Y105Q	4.70	3 of 3
S55K/S57M/D107G	4.28	2 of 3
G26S/Y32N/S57F	4.38	2 of 3
I51F/S57I/R101S	5.85	2 of 3
S57A/D107R	not detected	0 of 3
T28Q/H35D/S57R	not detected	0 of 3
G26M/A33F/S57D	not detected	0 of 3
S57G/S63Y	4.78	3 of 3
S57W/Y60L/G104Q	3.68	1 of 3
G50Y/S57D/R101T	not detected	0 of 3
A33W/S57Y/Y108W	3.99	1 of 3
S57T/D62W/F106M	not detected	0 of 3
S57G/I58C	4.86	1 of 3
W53G/S57P/V64D	not detected	0 of 3
F27E/S57R/G102M	5.43	2 of 3
S55G/S57N	1.61	3 of 3
S57C/I58C/S63N	not detected	0 of 3
H35W/G50K/S57P	5.04	2 of 3
F27I/Y32W/S57M	3.85	1 of 3
F27D/W53V/S57P	5.92	2 of 3

For reference, 6 entries of the list once more:

changes	log10 Kd (nM), mean	seen in
I51A/S57A/G59A	not detected	0 of 3
S57D/Y60R/F106L	not detected	0 of 3
N54A/S57C/V64G	4.96	3 of 3
F29C/S57G/Y108F	not detected	0 of 3
N54E/S57K/V99K	not detected	0 of 3
S57N/F106E	not detected	0 of 3